The source of these data is patent US9499502B2, “5-substituted iminothiazines and their mono- and dioxides as BACE inhibitors, compositions, and their use” (Merck Sharp & Dohme Corp., priority 2011, dated 2016).

Amino acid sequences for entries named in this document (tags omitted). Residues count along the entry.
UniProt P56817, 75-416: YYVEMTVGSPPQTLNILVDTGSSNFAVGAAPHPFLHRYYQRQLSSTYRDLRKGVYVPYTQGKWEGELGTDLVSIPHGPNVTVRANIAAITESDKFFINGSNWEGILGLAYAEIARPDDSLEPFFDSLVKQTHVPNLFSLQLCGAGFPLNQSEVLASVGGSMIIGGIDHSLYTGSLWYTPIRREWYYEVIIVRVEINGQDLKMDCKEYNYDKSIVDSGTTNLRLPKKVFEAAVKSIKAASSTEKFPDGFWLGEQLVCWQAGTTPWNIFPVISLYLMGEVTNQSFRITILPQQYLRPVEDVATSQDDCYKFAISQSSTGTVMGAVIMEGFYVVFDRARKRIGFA
UniProt Q9Y5Z0, 63-473: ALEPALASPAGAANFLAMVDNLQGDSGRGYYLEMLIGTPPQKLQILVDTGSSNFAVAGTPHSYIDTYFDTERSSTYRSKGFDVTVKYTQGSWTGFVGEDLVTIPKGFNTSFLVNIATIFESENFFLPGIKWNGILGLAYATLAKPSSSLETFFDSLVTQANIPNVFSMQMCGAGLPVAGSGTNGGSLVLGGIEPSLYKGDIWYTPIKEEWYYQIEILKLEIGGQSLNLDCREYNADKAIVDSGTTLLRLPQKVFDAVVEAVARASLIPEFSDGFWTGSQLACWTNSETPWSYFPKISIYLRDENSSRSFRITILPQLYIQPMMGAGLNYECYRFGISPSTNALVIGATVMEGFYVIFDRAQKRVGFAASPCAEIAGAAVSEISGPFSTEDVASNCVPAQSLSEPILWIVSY

pKi: −log10 of the molar value. Like-named read-outs stand apart in the source and are kept apart here.

The target of assay [1] is soluble human BACE1 catalytic domain (Homo sapiens (Human), UniProt P56817). As to the kind of experiment: BACE1 HTRF FRET Assay. To be noted: for Ki: BACE1 Ki (nM). Background: In TR-FRET formats the signal depends on donor and acceptor labels being close together.
Assay [2] concerns the target purified human autoBACE-2 (Homo sapiens (Human), UniProt Q9Y5Z0). Briefly: BACE-2 Assay (BACE-HTRF assay). Type of assay: biochemical. To be noted: Ki calculated from IC50 using the Cheng-Prusoff equation; read-out: BACE2 Ki.

For orientation: Ki means the dissociation constant of the complex between target and ligand, obtained from inhibition or displacement. In assay [1], `COCC1(C)C(=N)N[C@](C)(c2cc(F)ccc2F)CS1(=O)=O` (single isomer, unassigned) [Example 32d-b] came in with a Ki of 2910 nM.

One may read the pKi as the Ki on a negative log10 scale, so that one unit is a factor of ten. Turning to `COc1ccc(C(=O)Nc2ccc(F)c([C@]3(C)CS(=O)(=O)[C@@](C)(c4ccccc4F)C(=N)N3)c2)nc1` [Example 9do-a], the pKi in assay [1] (read-out: BACE1 Ki, Ki calculated from IC50 using the Cheng-Prusoff equation) was 7.74.

Turning to `COc1ccc(C(=O)Nc2ccc(F)c([C@]3(C)CS(=O)(=O)C(C)(c4ccccc4F)C(=N)N3)c2)nc1` (single isomer, unassigned) [Example 9do-b], in assay [1] (Ki calculated from IC50 using the Cheng-Prusoff equation), the Ki is 20.8 nM.

Take `Cc1nc2ccc(CC3(C)C(=N)N[C@](C)(c4cc(F)ccc4F)CS3(=O)=O)cc2o1` (single isomer, unassigned) [Example 32c-b]: the affinity in assay [1], expressed as Ki, was 2310 nM.

For `Cc1nc2ccc(CC3(C)C(=N)N[C@](C)(c4cc(F)ccc4F)CS3(=O)=O)cc2o1` (single isomer, unassigned) [Example 32c-a], in assay [1], the Ki worked out at 3590 nM.

Consider `CC1(C)C(=N)N[C@](C)(c2sc(-c3cnc(-c4ccc(F)cc4)o3)cc2Cl)CS1(=O)=O` [Example 27v], for which the pKi in assay [2] is not below 8.00.

As to `COCC1(C)C(=N)N[C@](C)(c2cc(F)ccc2F)CS1(=O)=O` (single isomer, unassigned) [Example 32d-a], the Ki in assay [1] turned out to be 2010 nM.
